## scFv variants of Ab-91 (heavy chain) against a SARS-CoV-2 spike peptide

Values reported by Engelhart et al. 2022, doi:10.1038/s41597-022-01779-4 (FLAb copy).

All variants were tested on one target, the spike HR2 peptide PDVDLGDISGINAS (SARS-CoV-2).

The variants keep the light chain, the linker and the frameworks of Ab-91 (scFv order VL, the linker GGGGSGGGGSGGGGS, VH).
VL: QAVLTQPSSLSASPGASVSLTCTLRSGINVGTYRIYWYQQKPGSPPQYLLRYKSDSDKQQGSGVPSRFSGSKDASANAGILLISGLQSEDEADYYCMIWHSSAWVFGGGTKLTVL
VH: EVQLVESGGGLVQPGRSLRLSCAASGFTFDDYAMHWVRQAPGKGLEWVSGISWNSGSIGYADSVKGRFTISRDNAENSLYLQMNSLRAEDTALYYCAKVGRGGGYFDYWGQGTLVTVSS

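The starting antibody came from a phage panning campaign against this peptide. AAYL51 was designed without a model: most single CDR substitutions and a random sample of double and triple ones. The assay is AlphaSeq: two haploid yeast populations carry antibody and antigen on their surface. Mating (16 h, 30 °C) was followed by selection of diploids and sequencing of their barcodes. The ratio of observed to expected reads was calibrated, replicate by replicate, on BCL2-family standards whose Kd was known from biolayer interferometry. There are three technical replicates.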

Substitutions are numbered in sequence along the VH above, starting at 1 (not Kabat). Numbers give log10(Kd / nM), so 0 is 1 nM and 3 is 1 µM. Smaller is tighter. Replicates are averaged; those with no signal do not enter the mean. A pair that was not seen in that replicate is written "nd"; this usually means weak binding, but a binder can also be missed. Empty control strains, which show no peptide, gave a signal in 21% of pairings with library AAYL51; the median was 4.54 and 95% of these signals were weaker than 3.26. No background was subtracted. For each scFv, signals with the empty controls are counted beside the result, with their mean in brackets.

changes,"log10 Kd, replicates","mean, log10 nM",signal with controls
G56D+Y60E+Y105E,nd / nd / nd,nd,1 of 9 (4.13)
I51Y+S52D+S63H,nd / nd / nd,nd,3 of 9 (3.87)
W53M+A61Q+R101T,1.83 / 2.22 / 1.65,1.90,4 of 9 (4.78)
F29W+V99E+D107W,4.08 / 5.34 / nd,4.71,5 of 9 (4.84)
G56E+D62Y+R101T,4.78 / nd / 3.25,4.01,3 of 9 (4.01)
I58S+V99Q,nd / nd / 5.35,5.35,3 of 9 (4.23)
F29G+S57E+Y108K,nd / nd / nd,nd,0 of 9
I58C+K65C,3.10 / 3.09 / 2.23,2.81,1 of 9 (5.16)
S63M+G100E+G103L,nd / nd / nd,nd,1 of 9 (3.98)
F29I+W53V+G103T,nd / nd / nd,nd,0 of 9
F29N+D31M+S63R,4.19 / nd / nd,4.19,0 of 9
A33G+G56M+G104N,1.57 / 1.51 / 1.44,1.51,0 of 9
D31L+G104V,nd / nd / nd,nd,0 of 9
A61C+D62N+G102P,nd / nd / 3.99,3.99,0 of 9
T28V+I51R,4.67 / 3.21 / nd,3.94,4 of 9 (4.62)
D31S+W53H+F106S,5.62 / 5.47 / nd,5.54,5 of 9 (4.57)
G50Q+S52T+I58L,nd / 3.19 / nd,3.19,2 of 9 (4.35)
F29D+Y105S,2.94 / 2.64 / 1.32,2.30,1 of 9 (2.74)
G26V+D30W+V64A,nd / 3.34 / nd,3.34,3 of 9 (4.43)
S55Q+D62G+F106T,4.50 / nd / 4.51,4.51,2 of 9 (4.52)
D30P+A33F+R101M,3.73 / nd / nd,3.73,0 of 9
M34L+S63N+G102I,5.93 / nd / 4.88,5.40,0 of 9
S52M+N54Y+G102E,nd / nd / nd,nd,0 of 9
I51Q+Y60E+G103H,nd / nd / nd,nd,0 of 9
F29T+A61N+D107Q,nd / nd / nd,nd,0 of 9
D31S+G59C+S63F,4.47 / nd / nd,4.47,5 of 9 (4.54)
G26W+I58M+G59M,nd / nd / nd,nd,0 of 9
I51W+S52N,3.54 / nd / nd,3.54,0 of 9
D31K+I58R,nd / nd / nd,nd,0 of 9
R101P,nd / nd / nd,nd,0 of 9
I51G+W53M+K65C,4.75 / nd / nd,4.75,4 of 9 (4.03)
D31Q+M34L+H35K,nd / nd / nd,nd,2 of 9 (5.33)
F27I+H35A,5.29 / 3.64 / nd,4.46,0 of 9